Values quoted from earlier work in publication PMC8155967, “Investigating the Potential of Transdermal Delivery of Avanafil Using Vitamin E-TPGS Based Mixed Micelles Loaded Films” (Pharmaceutics, 2021).

D-α-Tocopherol polyethylene glycol 1000 succinate [TPGS]
hydrophile/lipophile balance (HLB) value: 13.2
critical micelle concentration (aqueous media): 0.02 w/w%
